Data from US20230079150A1, “METHODS FOR PREVENTION OR TREATMENT OF VIRUS-INDUCED ORGAN INJURY OR FAILURE WITH IL-22 DIMER” (priority 2020, published 2023).

Columns and labels:
[1] = test system: Influenza A virus subtype H1N1 (strain A/California/07/2009); details: mouse, in vivo
[2] = test system: Influenza A virus subtype H1N1 (strain A/California/07/2009); details: for Total pathological score, Mean ± SD: group mean
[3] = Day 5 after viral challenge, individual animals
[4] = Day 14 after viral challenge, individual animals

CCOC(=O)C1=C[C@@H](OC(CC)CC)[C@H](NC(C)=O)[C@@H](N)C1 [Oseltamivir, oseltamivir] was tested, and the survival rate [1] was 62.5%, the “Total pathological score, Mean ± SD” value ([2]; Day 5 after viral challenge) was 10.67±3.51 and the “Alveolar septum and perivascular infiltration of inflammatory cells” value [2, 3] was 2 (2×) and 3. The Alveolar septum widening [2, 3] was 2 (2×) and 3, the “Bronchial epithelial cell degeneration and necrosis” value [2, 3] was 2 (2×) and 3 and the Total score [2, 3] was 7 and 14 and 11. For the same molecule, the Vasodilatation congestion [2, 3] was 1 and 2 (2×), the “lung injury (histopathological evaluation and morphological changes)” value ([2]; Day 5 and Day 14, in comparison to model control group) was “reduced” and the “Total pathological score, Mean ± SD” value ([2]; Day 14 after viral challenge) was 15.40±1.95. For the same molecule, the “Alveolar septum and perivascular infiltration of inflammatory cells” value [2, 4] was 3 (3×) and 2 and 4, the Alveolar septum widening [2, 4] was 3 (3×) and 2 and 4 and the “Bronchial epithelial cell hyperplasia” value [2, 4] was 2. The “Exudation of inflammatory cells, serous, and cellulose in the alveolar cavity” value [2, 4] was 2 (3×) and 3 (2×) and the Vasodilatation congestion [2, 4] was 4.

Where “and” joins values, the source holds several entries; their conditions need not be identical. Equal entries are not always repeated. Where two headings read alike, the source gives them in different places.
